Measurements published in ChEMBL document CHEMBL1806408, “Design-driven LO: the discovery of new ultra long acting dibasic β2-adrenoceptor agonists” (Bioorg Med Chem Lett, 2011).

By UniProt entry, the sequences of proteins in these tests, tags left out.
UniProt P08588, whole entry: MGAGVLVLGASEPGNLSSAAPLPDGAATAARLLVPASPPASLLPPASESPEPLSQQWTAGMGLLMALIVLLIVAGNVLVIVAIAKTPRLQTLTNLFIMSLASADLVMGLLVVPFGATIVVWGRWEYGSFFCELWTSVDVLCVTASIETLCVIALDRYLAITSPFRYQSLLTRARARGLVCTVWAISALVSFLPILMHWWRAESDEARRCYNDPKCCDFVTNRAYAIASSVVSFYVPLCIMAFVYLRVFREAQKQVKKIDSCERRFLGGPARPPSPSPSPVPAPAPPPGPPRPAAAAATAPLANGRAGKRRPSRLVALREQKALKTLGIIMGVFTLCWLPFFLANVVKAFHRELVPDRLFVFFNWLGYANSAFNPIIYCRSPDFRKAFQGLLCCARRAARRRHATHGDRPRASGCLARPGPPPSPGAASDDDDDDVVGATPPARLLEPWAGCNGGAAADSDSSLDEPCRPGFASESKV

How the values were obtained:
[1] = biological target: Beta-1 adrenergic receptor (Homo sapiens, UniProt P08588)
Cavia porcellus = species: Cavia porcellus; test: animal or person; details: inhaled or nasal

Row | Structure (SMILES) | EC50 [1] | ED80 (Cavia porcellus)
1 | O=c1[nH]c2c(O)ccc([C@@H](O)CNCCSCCCNCCc3cccc(Cl)c3Cl)c2s1 | 100 nM | 
2 | O=c1[nH]c2c(O)ccc([C@@H](O)CNCCOCCCNCCc3cccc(Cl)c3)c2s1 | 31.6 nM | 
3 | COc1ccc(CC(C)NCC(O)c2ccc(O)c(NC=O)c2)cc1 (stereo not drawn) [FORMOTEROL] |  | 1 µg/kg
